Results on 99 compounds are retold here after PubChem BioAssay AID1554 (Broad Institute, 2009).

As usually defined, the inhibition is the relative decrease from the control value, in per cent.

The entries are a selection whose mix differs from that of the whole data set. Some salts or complexes appear as unconnected parts, following the source record. Activity calls are given as the source filed them. Cut-off read from the data, not from the text of the source: active = inhibition above about 50%; inconclusive = no clear call, values can overlap the other calls; inactive = below that.

A short description of the assay: PubChem AID 1554. Particulars: BJeLR (HRASV12) viability, CellTiter-Glo ATP luminescence, 48 h; hits give high values; concentration not given here. On the technique in general: ATP-based viability assays read luminescence as a measure of living cells.
Consider `O=[N+]([O-])c1cccc(NC2=NCC(CBr)S2)c1` (centres undefined), for which the inhibition is inactive: 0.561%.
With `O=C(O)CNc1ccc([As](=O)(O)O)cc1` the figure was inactive: -5.84%.
As for `CC(C)(C)C(=O)NC(Sc1ccncn1)C(Cl)(Cl)Cl` (centres undefined), the inhibition was inactive: 1.73%.
With `O=[N+]([O-])c1ncn(CCn2ncnc2[N+](=O)[O-])n1` the figure was inactive: 5.28%; with `O=C(Nc1cc([As](=O)(O)O)ccc1O)c1ccccc1`, inactive: 10.9%.
Then `CCOC(=O)c1ccc(NP(C)(=O)Oc2ccc(Cl)cc2)cc1` (centres undefined), with inactive: 5.67%; and `CP(=O)(OC12CC3CC(CC(C3)C1)C2)OC12CC3CC(CC(C3)C1)C2`, with inactive: 0.961%; and `Nc1ccc2c(ccc3cccnc32)n1.O=[N+]([O-])c1cc([N+](=O)[O-])c(O)c([N+](=O)[O-])c1`, with inactive: 2.96%.
Regarding `CN(C)C(=O)OCCc1n(C)cc[n+]1C`, the inhibition is inactive: 6.9%.
With `CC(C)=N/N=C(\N)N[N+](=O)[O-]` the figure was inactive: -4.65%; with `CN(C)C(=O)c1c([N+](=O)[O-])cc([N+](=O)[O-])cc1[N+](=O)[O-]`, inactive: -5.28%.
For the compound `CC1CCN(C(=O)Oc2c(Cl)cc(Cl)c3cccnc23)CC1`, the inhibition is inactive: 2.23%.
With `C[N+]1=C2C=CC=CC=C2SC12C([N+](=O)[O-])=CC([N+](=O)[O-])=C[C-]2[N+](=O)[O-]` (centres undefined) the figure was inactive: 11.1%; with `Nc1ccc([As](=O)(O)c2ccc(N)cc2)cc1`, inactive: -11.8%.
With `CC(C)(C)c1ccc(OP(C)(=O)O)cc1` the figure was inactive: -4.18%.
Turning to `CP(=O)(Nc1ccc(Cl)cc1)Oc1ccc(F)cc1` (centres undefined), the inhibition is inactive: -14.5%.
Then `CCN(/C(=N/P(=O)(N1CCOCC1)N1CCOCC1)N1CCOCC1)c1ccc(OC)cc1`, with inactive: 1.07%; and `O=C(OCCCN1CCCC1)C(O)(c1ccccc1)C1CCCCC1` (centres undefined), with inactive: -1.82%.
Then `COc1ccccc1OP(C)(=O)Nc1c(C)n(C)n(-c2ccccc2)c1=O` (centres undefined), with inactive: -4.14%; and `CC(=O)N1C2C3N(C(C)=O)C1C1N(C(C)=O)C(C(N1C(C)=O)N3C(C)=O)N2C(C)=O`, with inactive: 3.23%; and `O=[N+]([O-])c1cccc2n[nH]nc12`, with inactive: -1.04%.
With `O=[N+]([O-])c1cc([N+](=O)[O-])c(CCNc2ccccc2)c([N+](=O)[O-])c1` the figure was inactive: -1.86%; with `CCc1nc2c(n1)c1c(non1O)c1c2no[n+]1[O-]`, inactive: -2.66%; with `CCc1ccc(OP(C)(=O)Nc2cccnc2)cc1` (centres undefined), inactive: -5.54%.
Take `CP(=O)(Oc1ccccc1)N1CCOC1=O` (centres undefined): the inhibition is inactive: 11.7%.
With `Cc1ccc(NP(=O)(Oc2ccccc2)Oc2ccccc2)nc1` the figure was inactive: -5.41%; with `COc1ccc(OP(C)(=O)Nc2ccc(Br)cc2)cc1` (centres undefined), inactive: 7.71%; with `COc1ccc(C2=NCC(CBr)S2)cc1` (centres undefined), inactive: 11%.
As for `CCN(CC)CC(O)COC(=O)C(O)(c1ccccc1)C1CCCCC1` (centres undefined), the inhibition is inactive: -2.76%.
Then `COc1ccccc1OP(C)(=O)Nc1ccc(C)cc1C` (centres undefined), with inactive: -5.46%; and `CP(=O)(Nc1ccccn1)Oc1ccccc1` (centres undefined), with inactive: 9.44%; and `CCc1ccc(OP(C)(=O)O)cc1`, with inactive: -1.44%.
Then `CC(C)CC(=O)NC(Sc1ccc(Cl)cc1)C(Cl)(Cl)Cl` (centres undefined), with inactive: -6.79%.
With `Nc1cc(N)c2nonc2c1[N+](=O)[O-]`, the inhibition is inactive: 11.9%.
For `Cc1c(NP(C)(=O)Oc2ccc(C(C)C)cc2)c(=O)n(-c2ccccc2)n1C` (centres undefined), the inhibition was inactive: 2.64%.
With `Cc1c2non([O-])c-2c(C)[n+](=O)[n+]1[O-]` the figure was inactive: 9.83%.
As for `O=C(NC(Sc1ccncn1)C(Cl)(Cl)Cl)c1ccccc1` (centres undefined), the inhibition was inactive: 1.33%.
With `Oc1ccccc1CNc1ccccn1` the figure was inactive: -8.11%; with `Cc1ccc(OP(=O)(Nc2nccs2)Oc2ccc(C)cc2)cc1`, inactive: 4.16%.
With `COc1ccc(OP(C)(=O)Nc2ccccn2)cc1` (centres undefined) the figure was inactive: -6.77%; with `COc1ccccc1OP(=O)(Nc1ccc(C)cn1)Oc1ccccc1OC`, inactive: 8.75%.
With `CN(C)CCOC(=O)C(O)(c1ccccc1)C1CCCC1` (centres undefined) the figure was inactive: 2.85%.
Regarding `Clc1ccc(Cl)c(NC2=NCC(CBr)S2)c1` (centres undefined), the inhibition was inactive: 11.9%.
Then `CN1CCCC(OC(=O)C(c2ccccc2)c2ccccc2)C1` (centres undefined), with inactive: -1.76%; and `NC(=O)c1cc([N+](=O)[O-])cc([N+](=O)[O-])c1N`, with inactive: 13.6%; and `Cc1ccc(N/C(=N/P(=O)(N2CCOCC2)N2CCOCC2)N2CCOCC2)cc1`, with inactive: 7.29%.
With `COc1ccccc1OP(C)(=O)Nc1ccc(Br)cc1` (centres undefined) the figure was inactive: -0.283%.
With `CCN(N=Nc1nonc1N)c1nonc1N` the figure was inactive: 9.26%; with `CP(=O)(OCCOc1ccccc1)OCCOc1ccccc1`, inactive: 10.6%; with `CP(=O)(Nc1ccc(Cl)cc1Cl)Oc1ccccc1` (centres undefined), inactive: -14.2%.
For `Nc1cccc2ccc([As](=O)(O)O)cc12`, the inhibition was inactive: 1.48%.
In the case of `Cc1nc2ccc3ccccc3c2o1.O=[N+]([O-])c1cc([N+](=O)[O-])c(O)c([N+](=O)[O-])c1`, the inhibition is inactive: 2.83%.
Then `O=[N+]([O-])c1cc([N+](=O)[O-])c(CCN2CCOCC2)c([N+](=O)[O-])c1`, with inactive: 1.24%.
Regarding `CN(C(=O)Cc1ccc(Cl)c(Cl)c1)[C@H]1CCCC[C@@H]1N1CCCC1`, the inhibition was inactive: 4.35%.
With `Cc1ccc(NP(=O)(Oc2ccccc2F)Oc2ccccc2F)nc1` the figure was inactive: 0.17%.
Then `COc1ccccc1OP(C)(=O)Nc1ccc(C)c(C)c1` (centres undefined), with inactive: 8.05%.
Then `CCOP(=O)(Nc1ccccc1)OCC`, with inactive: 5.11%; and `Cc1cc(SC(NC(=O)c2ccc(F)cc2)C(Cl)(Cl)Cl)ncn1` (centres undefined), with inactive: -6.47%.
Turning to `COc1ccc(OP(C)(=O)Nc2ccccc2Br)cc1` (centres undefined), the inhibition is inactive: -3.56%.
As for `O=C(O)c1ccccc1[As](=O)(O)O`, the inhibition was inactive: 0.894%.
With `CC(=O)Nc1ccc([As](=O)(O)O)cc1`, the inhibition was inactive: -0.0559%.
Then `Cc1cc(C)cc(OP(C)(=O)Nc2cccc(C(F)(F)F)c2)c1` (centres undefined), with inactive: -8.16%; and `O=P(Nc1nc2ccc(Cl)cc2s1)(c1ccccc1)c1ccccc1`, with inactive: 2.35%.
Then `CP(=O)(Nc1ccccc1)Oc1ccc(F)cc1` (centres undefined), with inactive: -9.87%; and `CN(C)C(=O)Oc1noc2ccccc12`, with inactive: -1.66%.
On to `CCCCCOc1ccc(NP(C)(=O)Oc2ccc(Cl)cc2Cl)cc1` (centres undefined), for which the inhibition was inactive: 0.756%.
With `O=[N+]([O-])c1cc([N+](=O)[O-])c(OC2CCCCC2O)c([N+](=O)[O-])c1` (centres undefined) the figure was inactive: -11.3%; with `Cc1ccccc1OP(=O)(Nc1ccccn1)Oc1ccccc1C`, inactive: -2.4%.
With `Cc1ccc(OP(=O)(Nc2ccccn2)Oc2ccc(C)cc2)cc1` the figure was inactive: -1.99%.
Then `CC(=O)NC(SC(=S)N(CC(C)C)CC(C)C)C(Cl)(Cl)Cl` (centres undefined), with inactive: 0.404%.
For `COC(=O)c1cc2c(s1)N=C(c1ccccc1)N(C)P2(=O)N1CCOCC1` (centres undefined), the inhibition is inactive: -13%.
For the compound `CCC(=O)N1C2C3N(C(=O)CC)C1C1N(C(=O)CC)C(C(N1C(=O)CC)N3C(=O)CC)N2C(=O)CC`, the inhibition is inactive: 1.85%.
With `CCN(CC)CCCOC(=O)C(O)(c1ccccc1)C1CCCCC1` (centres undefined) the figure was inactive: -6.96%; with `O=C(OC1CN2CCC1CC2)c1ccccc1` (centres undefined), inactive: -8.07%; with `CCOC(=O)c1ccc(NP(C)(=O)Oc2ccc(F)cc2)cc1` (centres undefined), inactive: 14.1%.
With `COc1ccc(OP(C)(=O)Nc2ccc(SC(F)(F)F)cc2)cc1` (centres undefined) the figure was inactive: 2.12%.
With `O=C(NC1CCS(=O)(=O)C1)NP(=S)(Oc1ccccc1)Oc1ccccc1` (centres undefined) the figure was inactive: 0.578%; with `CCNC(=S)/N=C(\N)N[N+](=O)[O-]`, inactive: -1.45%; with `CCOC(=O)NC(Sc1ccccc1)C(Cl)(Cl)Cl` (centres undefined), inactive: 2.68%.
With `Cc1ccc(NP(=O)(Oc2cccc(C)c2)Oc2cccc(C)c2)nc1`, the inhibition was inactive: -1.1%.
With `c1ccc(-c2nn[nH]n2)c(-c2nn[nH]n2)c1` the figure was inactive: 1.07%; with `CC(=O)Nc1ccc(Oc2c([N+](=O)[O-])cc([N+](=O)[O-])cc2[N+](=O)[O-])cc1`, inactive: -6.82%; with `COc1ccc2c(c1O)-c1c(O)c(OC)cc3c1[C@H](C2)[N+](C)(C)CC3.O=[N+]([O-])c1cc([N+](=O)[O-])c([O-])c([N+](=O)[O-])c1[O-]`, inactive: -3.82%.
Then `CC(=O)Nc1ccc([As](=O)(O)O)c(O)c1`, with inactive: -3.46%.
With `O=C(OC1CN2CCC1CC2)c1ccc([N+](=O)[O-])cc1` (centres undefined), the inhibition was inactive: 3.06%.
Then `CC(=O)c1ccc(N2CC2c2ccncc2)cc1` (centres undefined), with inactive: 3.57%.
With `C[C@@H]1C=CCP(=O)(Oc2ccccc2)O1` (some centres undefined), the inhibition is inactive: 1.78%.
With `C[C@H]1OP(=O)(Oc2ccccc2)C[C@@H]2O[C@@H]21` (some centres undefined) the figure was inactive: -2.09%; with `O=C(OCCN1CCN(CCOCc2ccccc2)CC1)C(O)(c1ccccc1)c1ccccc1`, inactive: -2.67%; with `CP(=O)(Nc1ccccc1F)Oc1ccccc1` (centres undefined), inactive: 12.6%.
With `CC(C)c1ccc(OP(C)(=O)Nc2ccc(SC(F)(F)F)cc2)cc1` (centres undefined) the figure was inactive: -10.9%; with `CC(C)(C)C(=O)NC(Sc1ccccc1)C(Cl)(Cl)Cl` (centres undefined), inactive: -7.19%.
Then `CCOc1ccc(C2=NCC(CBr)S2)cc1` (centres undefined), with inactive: 1.01%; and `O=P1(Nc2nc3ccc(Cl)cc3s2)COc2ccccc2O1` (centres undefined), with inactive: -3.17%; and `Cc1ccccc1NP(C)(=O)Nc1ccccc1C`, with inactive: -2.87%.
For the compound `CP(=O)(Nc1ccc2c(c1)OCCO2)Oc1ccccc1` (centres undefined), the inhibition was inactive: -5.8%.
Then `CCOP(C)(=S)SCC(=O)NC(C)(CC)C(=O)O` (centres undefined), with inactive: -4%.
Then `c1nnnn1CCn1cnnn1`, with inactive: 0.658%; and `CP(=O)(Nc1ccc(SC(F)(F)F)cc1)Oc1ccc(F)cc1` (centres undefined), with inactive: -9.11%.
